According to US7402560B2, “NCAM binding compounds” (priority 1998, dated 2008):

Assays:
hippocampal cells = test: Aggregate cultures of dissociated hippocampal cells (NCAM mediated cell adhesion); conditions: 24 h in culture
hippocampal neurons = test: Neurite outgrowth from hippocampal neurons, stereological total neurite length per cell (ProcessLength)

Row | Substance | number of neuronal processes formed (hippocampal cells) | optimal concentration for neuritogenic effect (hippocampal neurons) | neurite outgrowth (total neurite length per cell) (hippocampal neurons; low density culture, 24 h)
1 | C3d: Dendrimer of four C3 peptide monomers coupled to a backbone consisting of three lysines (ASKKPKRNIKA; also: dendrimer of four monomers coupled to a backbone of three lysines) | increase in the number of neuronal processes formed |  | 
2 | Ig2-pd: Dendrimer of the Ig2-peptide composed of four monomers coupled to a lysine backbone (GRILARGEINFK; also: dendrimer of four monomers coupled to a lysine backbone) |  | 3.6 µM | strong neuritogenic effect with a bell shaped dose-response relationship

No end group written: not given here.
